{
  "source": "patent US9371281B2",
  "about": "“Indole derivatives as inhibitors of histone deacetylase” (Pharmacyclics LLC, priority 2006, dated 2016)",
  "target": "T1, HDAC8 (Homo sapiens, UniProt Q9BY41)",
  "T1 sequence (Q9BY41 1-377)": "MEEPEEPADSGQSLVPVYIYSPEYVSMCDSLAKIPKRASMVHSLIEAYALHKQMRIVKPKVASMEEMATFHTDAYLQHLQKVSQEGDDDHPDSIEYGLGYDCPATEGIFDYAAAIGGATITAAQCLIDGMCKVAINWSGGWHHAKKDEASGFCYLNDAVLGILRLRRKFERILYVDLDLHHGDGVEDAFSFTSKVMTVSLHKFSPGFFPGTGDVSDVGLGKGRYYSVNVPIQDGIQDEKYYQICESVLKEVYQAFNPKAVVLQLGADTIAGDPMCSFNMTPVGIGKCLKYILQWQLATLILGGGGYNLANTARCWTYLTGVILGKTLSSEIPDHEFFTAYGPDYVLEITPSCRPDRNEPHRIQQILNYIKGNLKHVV",
  "test": "Inhibition of HDAC8 deacetylase activity in vitro",
  "format": "biochemical",
  "data": [
    {"smiles": "O=C(CCCCCCC(=O)Nc1ccccc1)NO", "note": "[SAHA, suberoylanilide hydroxamic acid, reference compound]", "values": [
      {"measurement": "IC50", "value": "> 100", "unit": "nM"}
    ]}
  ]
}
